The conditions of the data set: RP-HPLC, C18, isocratic MeOH 72%/H2O 28%.

On to `O=C(/C=C/c1ccccc1)Nc1ccccc1F` [Compound 4, (2E)-N-(2-Fluorophenyl)-3-phenylprop-2-enamide], for which the log k is 0.1330.

The record behind these values is article PMC6121455, “Synthesis and Spectrum of Biological Activities of Novel N-arylcinnamamides” (International Journal of Molecular Sciences, 2018).
